Rce1 inhib = yeast Ras-converting enzyme inhibition. calls only. Q03530. 290,000 compounds, 0.27% hits. yeast membranes, quenched prenylated peptide cleavage fluorescence. AID 2563;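 active = fall in fluorescence gain of 50% or more versus controls, with final raw signal at or below 3038400; inconclusive = same 50% fall but final raw signal above 3038400; inactive = fall in fluorescence gain under 50%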;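 note: plate controls were neutral control wells for no effect and wells lacking membranes for full effect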
Pemphigus Ab inh = blocks pemphigus antibody binding to human desmoglein-3. AID 588358. DSG3-coupled beads, scFv-anti-DSG3-GFP binding, flow cytometry; active compounds read low. P32926. 310,000 compounds, 0.48% hits. binding (percent of control), % at 10 µM;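 active = binding more than 3 SD below its plate's average and above zero; inconclusive = below that plate limit but binding exactly zero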;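 note: hits lower antibody fragment binding to DSG3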
TbMetRS inhib = blocks T. brucei methionyl-tRNA synthetase activity; 360,000 compounds, 0.4% hits; inhibition, % at 11.9 µM; purified T. brucei MetRS, ATP depletion, Kinase-Glo luminescence;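 active = inhibition above a per-plate cutoff of the control wells' mean inhibition plus 3 SD, cut at about 5.5% in these data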;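 note: 0% = DMSO wells median and 100% = median of wells with control inhibitor compound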
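Dosing: 11.9 µM compound single dose, 0.9% DMSO; Assay system: purified T. brucei MetRS enzyme; Measured by: Kinase-Glo luciferase luminescence reporting remaining unconsumed ATP; Schedule: 15 min plus 2 h at 25 °C.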
UUG fidelity = yeast start codon fidelity modulation; activity score, % at 18.7 µM; actives 0.13% (n = 350,000); S. cerevisiae UUG-firefly luciferase reporter, luminescence/redox ratio; AID 602363;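 active means replicate mean at a twofold rise or more, about +100% in these data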;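 further: firefly luciferase made from a UUG start codon reports start codon fidelity; reporter light over untreated wells divided by growth signal over untreated wells; some hits fall short of that in this replicate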
Arrestin-AP2 inh = blocks beta-arrestin peptide binding to AP2 adaptin. FITC-arrestin peptide / GST-AP2 beads, flow cytometry; AP2 beta2 appendage carries R879A mutation. AID 504490. inhibition, % at 10 µM. 340,000 compounds, 0.31% hits;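 active = inhibition above a set limit, near 3 SD of compounds lacking own fluorescence, cut at about 54% in these data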;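 note: plate controls were DMSO wells for no effect and 5 µM unlabelled arrestin peptide for full effect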
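Material – GST-tagged AP2 beta2-adaptin appendage (R879A) on 4 µm glutathione beads · Probe or stimulus – fluorescein-tagged arrestin peptide at 50 nM final · Timing – 12 min plus 1 h, RT · Detection – bead flow cytometry, FITC channel · Read-out basis – inhibition as reduced fluorescein signal on beads, percent · Medium – PBS plus Tween 20 (0.05%) and BSA (0.1%)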
Arr-AP2 CP1 = inhibitors of human beta-arrestin and AP2 interaction; shares compounds with Arrestin-AP2 inh; GST-AP2 beads, FITC arrestin peptide binding, flow cytometry; GST-fused beta2-adaptin appendage, R879A mutant; inhibition, % at 10 µM; 1,300 compounds, 2% hits; AID 504908;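 active = inhibition above a set limit, roughly 3 SD of non-fluorescent compound noise, cut at about 38% in these data; inactive = inhibition at or below that limit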;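 note: loss of bead fluorescence from 50 nM FITC arrestin peptide bound to appendage; 0% = negative control wells and 100% = excess unlabelled arrestin peptide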
GST GSH counter = GST-GSH bead binding interference, counter-screen | shares compounds with Arrestin-AP2 inh | GST-fluorescein binding to GSH beads, fluorescence | inhibition, % at 10 µM | 1,300 compounds, 2% hits;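 active = inhibition above 50%, about 3 SD of the inhibition seen with non-fluorescent compounds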;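 note: fluorescein maleimide labelled GST captured on 4 micron glutathione beads; higher means more loss of bead fluorescence from quenching or blocked binding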
Starred values were filed as active, the others as inactive; i = inactive; ? = inconclusive; . = no result given. Sampled rows, rich in hits. Any-hit rate of the full collection: about 1.2%.

Fields – Rce1 inhib | Pemphigus Ab inh | TbMetRS inhib | UUG fidelity | Arrestin-AP2 inh | Arr-AP2 CP1 | GST GSH counter
1: C[C@H](CO)N1C[C@H](C)[C@H](CN(C)Cc2ccc3c(c2)OCO3)Oc2ccc(NC(=O)C3CCCCC3)cc2CC1=O
→ . | . | . | 9.7 | . | . | .
2: CCn1ncc(C(=O)Nc2ccc(F)cc2)c1C
→ i | 105.1 | -0.1 | . | -11.7 | . | .
3: Cc1c(C(=O)Nc2ccc(C(=O)O)cc2)cnn1C
→ i | 110.6 | -0.1 | . | 58.0* | -6.5 | -0.9
4: CNC[C@@H]1OCCCC[C@@H](C)Oc2ccc(NS(C)(=O)=O)cc2C(=O)N([C@@H](C)CO)C[C@@H]1C
→ . | . | . | -2.1 | . | . | .
5: COc1ccc(C2C(=O)c3ccccc3C2=O)cc1OC
→ i | 89.2 | -1.0 | . | 60.9* | 5.8 | -3.5
6: COc1cc(C2C(=O)c3ccccc3C2=O)ccc1O
→ i | 107.1 | 0.7 | -3.9 | 7.1 | . | .
7: COCC(=O)Nc1nc2n(n1)C(c1ccc(Cl)cc1)CC(c1ccc(OC)cc1)N2 (stereo not given)
→ i | 100.4 | -0.1 | -7.6 | 79.6* | 1.8 | -3.0
8: Cc1cc(C(=O)Nn2cnc3ccccc3c2=O)ccc1[N+](=O)[O-]
→ i | 97.5 | 0.0 | . | 54.3* | 1.8 | 3.3
9: Cc1cc(C(=O)Nn2c(C)nc3ccccc3c2=O)ccc1[N+](=O)[O-]
→ i | 101.3 | -1.3 | . | -13.2 | . | .
10: COc1ccc(S(=O)(=O)N[C@@H]2C=C[C@H](CC(=O)O)O[C@H]2CO)cc1
→ . | . | . | -18.9 | . | . | .
11: COc1ccc(S(=O)(=O)N2CCCCCC2)cc1C(=O)NCCc1ccccc1
→ . | 104.7 | -0.4 | -35.4 | 61.4* | 18.7 | -2.6
12: O=C(Nc1cccc(F)c1)c1cc(S(=O)(=O)N2CCOCC2)ccc1N1CCCC1
→ . | 100.4 | -0.3 | -3.8 | 28.7 | -4.3 | -2.4
13: O=C(Nc1cccc(C(F)(F)F)c1)c1cc(S(=O)(=O)N2CCCCC2)ccc1N1CCOCC1
→ i | 91.6 | -1.5 | 12.8 | -1.2 | . | .
14: CNC(=O)c1cc(S(=O)(=O)N2CC(C)OC(C)C2)ccc1N1CCOCC1 (stereo not given)
→ i | 113.6 | -0.4 | 10.1 | -7.2 | . | .
15: CNC(=O)c1cc(S(=O)(=O)N2CC(C)OC(C)C2)ccc1N1CCCCC1 (stereo not given)
→ i | . | -0.7 | 9.1 | 16.4 | -0.3 | -14.7
16: Cc1cc(S(=O)(=O)N2CCCCC2)ccc1OCC(=O)Nc1ccccc1
→ i | 93.1 | -0.3 | -4.1 | 26.6 | . | .
17: Cc1cc(S(=O)(=O)N2CCCC2)ccc1OCC(=O)Nc1ccccc1
→ i | 92.8 | -0.3 | -16.9 | 64.5* | -8.3 | -12.9
18: CN(C)C(=O)c1ccc(-c2ccc3c(c2)[C@H]2[C@H](CCN2C(=O)c2ccccn2)[C@H](CO)N3C)cc1
→ . | . | . | 15.7 | . | . | .
19: C[C@@H]1CN([C@@H](C)CO)C(=O)c2cc(NC(=O)CCCN(C)C)ccc2O[C@H]1CN(C)S(=O)(=O)c1cn(C)cn1
→ . | . | . | 4.4 | . | . | .
20: COc1ccc(NC(=O)N(C)C[C@H]2OCCCC[C@@H](C)Oc3ccc(NS(=O)(=O)c4cn(C)cn4)cc3C(=O)N([C@H](C)CO)C[C@H]2C)cc1
→ . | . | . | -7.4 | . | . | .
21: C[C@@H]1CN([C@@H](C)CO)S(=O)(=O)c2ccc(-c3cccc(F)c3)cc2O[C@H]1CN(C)C(=O)c1cccc(F)c1
→ . | . | . | 25.8 | . | . | .
22: COc1cccc(CNC(=O)c2cc(S(=O)(=O)N3CCOCC3)ccc2N2CCCC2)c1
→ . | 101.0 | -0.3 | 11.1 | -10.6 | 20.8 | 6.5
23: CNC(=S)N1CCN(c2c(F)cc3c(=O)c(C(=O)O)cn(C4CC4)c3c2OC)CC1C (stereo not given)
→ i | 97.0 | 0.0 | -24.6 | 68.2* | -3.0 | -9.5
24: Cc1ccccc1S(=O)(=O)NCC[C@@H]1CC[C@@H](NC(=O)C2CCCC2)[C@H](CO)O1
→ . | . | . | 7.2 | . | . | .
25: Cc1sc2ncnc(NCc3ccco3)c2c1C
→ i | 109.4 | 0.5 | . | 85.3* | -5.6 | -0.8
26: COC(=O)C1=C(NC(=O)COc2ccc3ccccc3c2)CCS1
→ i | 100.1 | -0.2 | -15.8 | -3.5 | . | .
27: COC(=O)C1=C(NC(=O)COc2ccc(Cl)cc2Cl)CCS1
→ i | 106.4 | -0.5 | . | 66.5* | -1.4 | 2.4
28: COc1cccc2c1cc1c(=O)n(CC(=O)NCCCN3CCN(C)CC3)nc(C)n12
→ ? | . | -0.4 | -4.9 | 59.4* | -6.2 | 1.9
29: Nc1nn(-c2ccccc2)c(N)c1N=Nc1ccccc1F
→ i | 93.1 | -0.8 | . | 56.2* | -4.4 | -9.1
30: Nc1nn(-c2ccccc2)c(N)c1N=Nc1ccccc1
→ i | 123.6 | -0.3 | -20.0 | 7.1 | . | .
31: Cc1[nH]c2ccccc2c1-c1csc(NC(=O)CN2CCOCC2)n1
→ i | 106.7 | -1.1 | -10.2 | 56.7* | -2.3 | 4.6
32: Cc1[nH]c2ccccc2c1-c1csc(NC(=O)CSCC(=O)O)n1
→ i | 105.7 | -0.7 | . | 5.4 | . | .
33: Cc1ccccc1C(=O)Nc1nnc(-c2cccnc2)o1
→ i | . | -1.3 | -18.2 | 60.5* | 1.7 | -2.8
34: O=C(C[C@H]1C[C@H](C(=O)N2CCCCC2)[C@@]2(CCc3ccccc3)c3[nH]c4cc(-c5ccco5)ccc4c3CCN2C1=O)NCc1ccco1
→ . | 95.9 | -1.6 | -15.7 | 0.6 | . | .
35: CC(C)N(C(=O)[C@H]1CC(CC(=O)NCc2ccco2)C(=O)N2CCc3c([nH]c4ccccc34)[C@]12C)C(C)C (stereo not given in full)
→ . | 100.5 | 0.3 | 9.6 | 1.9 | . | .
36: CC(C)N(C(=O)[C@H]1C[C@H](CC(=O)NCc2ccco2)C(=O)N2CCc3c([nH]c4cc(-c5ccco5)ccc34)[C@]12C)C(C)C
→ . | 99.8 | -0.3 | -12.0 | 60.2* | -9.1 | -1.4
37: O=C(C[C@H]1C[C@H](C(=O)N2CCCCC2)[C@@]2(CCc3ccccc3)c3[nH]c4cc(-c5ccco5)ccc4c3CCN2C1=O)NCCC1=CCCCC1
→ . | 94.4 | 0.3 | -15.8 | 57.2* | -2.8 | -5.7
38: CCN(CC)c1ccc(/C=N/NC(=O)Cc2cccs2)c(O)c1
→ i | 103.3 | -1.3 | -5.0 | 60.9* | 2.4 | -3.8
39: COCCNC(=O)Cn1nc(-c2ccc(Cl)cc2)c2ccccc2c1=O
→ i | 104.0 | -0.7 | -7.7 | 63.8* | -4.2 | 2.6
40: COCCNC(=O)Cn1nc(-c2ccccc2)c2ccccc2c1=O
→ i | 89.1 | 0.0 | -15.5 | -4.1 | . | .
41: COc1ccccc1-n1cnc2c(c1=O)c1nc3ccccc3nc1n2CCc1ccccc1
→ i | 80.7 | -0.6 | . | 72.9* | 0.7 | 68.1*
42: Cc1cc(C(=O)Nc2cccc3c2O[C@@H](CN(C)Cc2ccc(C(F)(F)F)cc2)[C@@H](C)CN([C@H](C)CO)C3=O)n(C)n1
→ . | . | . | 2.5 | . | . | .
43: COc1ccc(NC(=O)c2ccc3nc[nH]c3c2)cc1
→ i | 114.5 | -0.8 | -13.9 | 60.4* | 13.7 | 0.5

4 structures out of the list, ordered by formula weight, lowest first.
Fields – Rce1 inhib | Pemphigus Ab inh | TbMetRS inhib | UUG fidelity | Arrestin-AP2 inh | Arr-AP2 CP1 | GST GSH counter
43: COc1ccc(NC(=O)c2ccc3nc[nH]c3c2)cc1
→ i | 114.5 | -0.8 | -13.9 | 60.4* | 13.7 | 0.5
30: Nc1nn(-c2ccccc2)c(N)c1N=Nc1ccccc1
→ i | 123.6 | -0.3 | -20.0 | 7.1 | . | .
24: Cc1ccccc1S(=O)(=O)NCC[C@@H]1CC[C@@H](NC(=O)C2CCCC2)[C@H](CO)O1
→ . | . | . | 7.2 | . | . | .
28: COc1cccc2c1cc1c(=O)n(CC(=O)NCCCN3CCN(C)CC3)nc(C)n12
→ ? | . | -0.4 | -4.9 | 59.4* | -6.2 | 1.9

Compound activity from PubChem.
